Measured values reported in ChEMBL document CHEMBL1765082, “Aminothiazolomorphinans with mixed κ and μ opioid activity” (J Med Chem, 2011).

By UniProt entry, the sequences of proteins in these tests, tags left out.
UniProt P35372, whole entry: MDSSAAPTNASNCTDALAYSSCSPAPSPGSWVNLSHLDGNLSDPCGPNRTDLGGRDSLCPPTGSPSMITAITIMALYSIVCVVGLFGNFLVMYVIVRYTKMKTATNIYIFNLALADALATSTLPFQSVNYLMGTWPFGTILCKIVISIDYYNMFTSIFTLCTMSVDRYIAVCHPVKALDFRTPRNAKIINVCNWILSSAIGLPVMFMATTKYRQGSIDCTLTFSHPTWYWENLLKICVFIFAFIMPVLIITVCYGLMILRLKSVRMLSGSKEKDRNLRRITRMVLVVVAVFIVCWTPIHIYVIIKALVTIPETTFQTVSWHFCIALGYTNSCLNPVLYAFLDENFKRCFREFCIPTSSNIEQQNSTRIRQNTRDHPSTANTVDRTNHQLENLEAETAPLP

Columns and labels:
[1] = target: Mu-type opioid receptor (Homo sapiens, UniProt P35372); assay: Agonist activity at human mu opioid receptor expressed in CHO cells assessed as [35S]GTPgammaS binding by scintillation counting relative to control; assay type: functional, cell-based
Summary of the method: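 Membranes from CHO cells stably expressing human κ (15 μg protein/tube) or μ (7.5 μg protein/tube) opioid receptor, grown in DMEM with 10% FBS at 37 °C, 5% CO2. Twelve agonist concentrations were incubated 60 min at 30 °C in 50 mM Tris-HCl, 3 mM MgCl2, 100 mM NaCl, 0.2 mM EGTA, pH 7.4, with 3 μM GDP and [35S]GTPγS. Filtration, then scintillation counting. Stimulation expressed as percent over basal; ≥3 experiments in triplicate.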

[2] = species: Homo sapiens; assay: Selectivity ratio of Ki for human mu opioid receptor to Ki for human kappa opioid receptor
[3] = species: Homo sapiens; assay: Selectivity ratio of Ki for human delta opioid receptor to Ki for human kappa opioid receptor

Structure (SMILES)	Emax [1]	Ratio Ki [2]	Ratio Ki [3]
CCNc1nc2cc3c(cc2s1)C[C@@H]1[C@@H]2CCCC[C@]32CCN1CC1CC1	100%	31	280
CNc1nc2cc3c(cc2s1)C[C@@H]1[C@@H]2CCCC[C@]32CCN1CC1CC1	40%	45	380
CNc1nc2cc3c(cc2s1)C[C@@H]1[C@@H]2CCCC[C@]32CCN1CCCF	83%	10	70
CCNc1nc2cc3c(cc2s1)C[C@@H]1[C@@H]2CCCC[C@]32CCN1CCCF	97%	4	81
